Measurements reported in patent US10385089B2, “Thionucleoside derivative or salt thereof, and pharmaceutical composition” (FUJIFILM Corporation, priority 2014, dated 2019).
Some compounds may have been tested in ways that are not shown here.

Test system: gemcitabine-resistant strain of pancreatic cancer cell line Capan-1 (ATCC Number: HTB-79)
Assay: Gemcitabine-resistant cell growth inhibition test (CellTiter Glo, total cellular ATP)
Conditions: read-out: Growth inhibitory activity IC50 (μmol/L); gemcitabine-resistant Capan-1, 72 hours of culture, CellTiter Glo luminescence

((2R,3S,4S,5R)-5-(4- amino-2-oxopyrimidin- 1(2H)-yl)-4-fluoro- 3-hydroxytetra hydrothiophen-2-yl) methyl bis(2-((2- isobutyroyloxyethyl) disulfanyl)ethyl) phosphate
IC50: 2 to 5 µmol/L

4-amino-1-((2R,3S,4S,5R)-3- fluoro-4-hydroxy-5-((((RS)-2- oxido-4H-benzo[d][1,3,2] dioxaphoshinin-2-yl)oxy)methyl) tetrahydrothiophen-2-yl) pyrimidin-2(1H)-one
IC50: 2 to 5 µmol/L

((2R,3S,4S,5R)-5- (4-amino-2- oxopyrimidin-1(2H)- yl)-4-fluoro-3- hydroxytetra hydrothiophen-2-yl) methyl bis(2-((2- (benzyloxy)ethyl) disulfanyl)ethyl) phosphate
IC50: < 2 µmol/L

((2R,3S,4S,5R)-5-(4- amino-2-oxopyrimidin- 1(2H)-yl)-4-fluoro-3- hydroxytetra hydrothiophen-2-yl) methyl bis(2-((2-acetoxyethyl) disulfanyl)ethyl) phosphate
IC50: 5 to 15 µmol/L
